Literature values in PMC6702104 (Bioorganic & medicinal chemistry letters, 2019).

Conditions: human plasma, 37 °C; cited from earlier work

## acetoxylethyl ester of tranexamic acid
  half-life time of hydrolysis: 6 to 12 min
